From publication PMC5189718 (Journal of the American Chemical Society, 2016)

Sequences of proteins named here, by UniProt entry; tags and fusion partners are left off.
UniProt P35372, whole entry: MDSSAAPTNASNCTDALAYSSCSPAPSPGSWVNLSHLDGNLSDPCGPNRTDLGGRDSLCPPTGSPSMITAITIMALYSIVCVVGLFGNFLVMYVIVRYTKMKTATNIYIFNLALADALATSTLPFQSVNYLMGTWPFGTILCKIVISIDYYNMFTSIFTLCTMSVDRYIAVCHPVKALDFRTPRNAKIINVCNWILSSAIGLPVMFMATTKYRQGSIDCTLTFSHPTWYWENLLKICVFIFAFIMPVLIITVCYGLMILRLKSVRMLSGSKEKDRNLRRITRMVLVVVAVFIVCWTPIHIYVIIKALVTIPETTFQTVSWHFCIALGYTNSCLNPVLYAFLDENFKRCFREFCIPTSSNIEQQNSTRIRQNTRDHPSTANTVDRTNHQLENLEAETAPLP

Biological target: hMOR (Homo sapiens, UniProt P35372)
Test: β-arrestin recruitment BRET assay at hMOR
Type: cell-based
Conditions: β-arrestin-2 BRET, in the presence of GRK2

## [D-Ala^2, N-Me-Phe^4, Gly-ol^5]-enkephalin [DAMGO, reference compound]
  β-arrestin recruitment: robust recruitment of β-arrestin
